# Source: PubChem BioAssay AID889 (National Center for Advancing Translational Sciences (NCATS), 2007)
# Sequences of proteins named here, by UniProt entry; tags and fusion partners are left off. A change or cut given only in a name is not applied to a line headed by its entry.
# UniProt P55210: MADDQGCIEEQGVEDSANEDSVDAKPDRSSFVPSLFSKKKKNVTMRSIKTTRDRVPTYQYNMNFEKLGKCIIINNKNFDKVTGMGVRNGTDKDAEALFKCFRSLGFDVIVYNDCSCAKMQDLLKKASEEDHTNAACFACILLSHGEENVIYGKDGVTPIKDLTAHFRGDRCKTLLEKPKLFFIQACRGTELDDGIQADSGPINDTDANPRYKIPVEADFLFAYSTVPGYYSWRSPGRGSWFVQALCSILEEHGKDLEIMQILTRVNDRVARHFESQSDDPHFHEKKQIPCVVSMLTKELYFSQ
# Where “and” joins values, the source holds several entries; their conditions need not be identical. Identical values can stand only once. The entries are a selection whose mix differs from that of the whole data set. Inconclusive results are not listed. Calls of active or inactive are those of the source. The call rests on the fitted dose curve; in most records, active means well fitted inhibition curve with a large enough effect in the main read-out, with a control signal flat (not every such curve was filed as active); inconclusive means small, poorly fitted or top-dose-only effect, or a change in a side signal; inactive means flat fitted curve, though single readings scatter.
# Biological target: Caspase-7 (Homo sapiens) (UniProt P55210)
# Assay: qHTS Assay for Allosteric/Competitive Inhibitors of Caspase-7; further: % of control where 0% means no effect
# Settings: recombinant caspase-7, Ac-DEVD-AFC fluorescence rate
# Text: NIH Molecular Libraries Screening Centers Network [MLSCN]
# NIH Chemical Genomics Center [NCGC]
# PI Name: Dr. James Wells,
# Dr. Enrique Perez-Paya, Dr.Janice Williams, Dr. Dennis Wolan, a person
# The caspases (Cysteine Aspartyl Protease) comprise a related family of 14 dimeric proteases that are critical mediators of apoptosis (programmed cell death) and inflammation. The caspases represent an important class of drug targets for stroke, ischemia, cancer and inflammatory diseases. […] One goal of this project was to identify compounds that act as allosteric inhibitors via stabilizing the procaspase form of the enzyme. Previous work in Well's laboratory has shown that such allosteric inhibitors can be identified and these act by binding at the dimer interface of enzyme (Hardy, Lam et al., 2004).
# The biochemical assay was configured using purified caspase 7 at a high enzyme concentration to promote formation of the homodimers and thus facilitate the identification of allosteric inhibitors. The overall goal was to identify reversible inhibitors with better drug-like properties than the currently available set of aspartyl-containing peptidomimetics that covalently bind the active site. Caspase 7 was assayed using the profluorescent substrate Ac-DEVD-AFC. After initiation of the assay with substrate the plates were rapidly read using an automated robotic system (Kalypsys, Inc.) to maintain consistent timing. A kinetic mode of detection was used where the initial rate was collected (estimated final product formation was ~10%). Compounds were screened as a concentration-titration series that ranged from 57 uM to 0.7 nM. Below is the protocol used for caspase 7.
# NCGC Assay Protocol Summary:
# Caspase 7 was prepared in buffer (50 mM HEPES pH 7.5, 50 mM KCl, 200 mM NaCl, 10 mM DTT, 0.1% CHAPS) at a concentration of 66.6 nM and 3 uL was dispensed to all wells using black solid Kalypsys 1536-well plates. 20 nL of DMSO containing compounds was added using a pin-tool (Kalypsys Inc.) to columns 5-48. Then 20 nL of DMSO solution from a control plate was added to columns 1-4. Controls were: Column 1, 16 point titration with each concentration in duplicate (1:1 dilutions in DMSO; final starting concentration was 57 uM) of the caspase 7 inhibitor Ac-DEVD-CHO (Alexis Biochemicals); Column 2, a 16 point titration with each concentration in duplicate of the free AFC fluorophore prepared in DMSO (Alexis Biochemicals), final starting was 40 uM; Column 3 neutral (DMSO only) control; Column 4: DMSO alone, to serve as a negative control (no substrate was added). Then 1 uL of 20 uM the substrate Ac-DEVD-AFC (Alexis Biochemicals) prepared in the same buffer was dispensed to all wells except columns 2 and 4 and the plates were immediately transferred (< 1 min) to the Viewlux. The plates were then exposed using 405 nm excitation/520 nm emission filters for 4 sec and read at 20 sec intervals for 3 min. Final enzyme concentration was 50 nM and the final substrate concentration was 5 uM.
# Concentration-response curves were fitted to the data calculated from slope of the linear regression of fluorescent intensity versus time (the rate). The concentration-effect curves were then classified based on curve quality (r2), response magnitude and degree of measured activity. […] Inconclusive compounds had appreciable concentration-dependent effects on both the measured rate and the interpolated basal fluorescence intensity at the start of the reaction but where the basal fluorescent intensity was marginal (e.g. < 10-fold). Inconclusive compounds also encompass highly fluorescent compounds (>100-fold increases in fluorescent intensities values relative to controls) where artificial concentration-dependent decreases in the rate occurred at high compound concentrations due to fluorescent interferences.
# Keywords: Caspase 7, proteases, profluorescent, MLSMR, MLSCN, NIH Roadmap, qHTS, NCGC
# [1] = at 57.5 µM (top of the series) unless noted
smiles,measurement,setting,value
CN(C(=O)Cc1ccccc1)[C@@H]1CC[C@@]2(CCCO2)C[C@H]1N1CCCC1,"activity change, negative = inhibition",[1],inactive: 0.866%
CCc1nc2c(n1)c1c(non1O)c1c2no[n+]1[O-],"activity change, negative = inhibition",[1],inactive: -0.648%
O=C(CO)Nc1ccc([As](=O)(O)O)cc1,"activity change, negative = inhibition",[1],inactive: 0.208% [at 11.5 µM]
O=[N+]([O-])c1ccc(C[As](=O)(O)O)cc1,"activity change, negative = inhibition",[1],inactive: 0.154% [at 11.5 µM]
Cc1c2non([O-])c-2c(C)[n+](=O)[n+]1[O-],"activity change, negative = inhibition",[1],inactive: 0.735%
NCC[C@@H](N)CSP(=O)(O)O,"activity change, negative = inhibition",[1],inactive: -0.217% [at 11.5 µM]
CN(C(=O)Cc1ccc(Cl)c(Cl)c1)[C@H]1CCCC[C@@H]1N1CCCC1,"activity change, negative = inhibition",[1],inactive: -0.882% and inactive: 0.261% and inactive: -1.39%
[N-]=[N+]=NCC(O)CN=[N+]=[N-] (configuration not stated),"activity change, negative = inhibition",[1],inactive: 2.25% [at 11.5 µM]
C(Cc1nn[nH]n1)c1nn[nH]n1,"activity change, negative = inhibition",[1],inactive: 1.67% [at 11.5 µM]
COC(=O)c1cc2c(s1)N=C(c1ccccc1)N(C)P2(=O)N1CCOCC1 (configuration not stated),"activity change, negative = inhibition",[1],inactive: 0.374%
O=P1(Nc2nc3ccc(Cl)cc3s2)COc2ccccc2O1 (configuration not stated),"activity change, negative = inhibition",[1],inactive: -0.347%
O=P(Nc1nccs1)(c1ccccc1)c1ccccc1,"activity change, negative = inhibition",[1],inactive: 1.53%
c1nnnn1CCn1cnnn1,"activity change, negative = inhibition",[1],inactive: -2.43%
CN1CCC[C@H](OC(=O)C(c2ccccc2)c2ccccc2)C1,"activity change, negative = inhibition",[1],inactive: 3.64% [at 11.5 µM]
C[C@@H](O)COc1ccc([As](=O)(O)O)cc1N,"activity change, negative = inhibition",[1],inactive: 1.3% [at 11.5 µM]
Cc1cc([N+](=O)[O-])cc([N+](=O)[O-])c1O,"activity change, negative = inhibition",[1],inactive: -5.28%
[N-]=[N+]=Nc1ccc([As](=O)(O)O)cc1,"activity change, negative = inhibition",[1],inactive: 1.39% [at 11.5 µM]
O=C(OC1CN2CCC1CC2)c1cccc(Cl)c1 (configuration not stated),"activity change, negative = inhibition",[1],inactive: 1.15%
Cc1nn(-c2ccccc2)c2c1P(=O)(N1CCOCC1)N(C)C(c1ccccc1)=N2 (configuration not stated),"activity change, negative = inhibition",[1],inactive: 6.57%
O=P1(Nc2ncccn2)COc2ccccc2OC1,"activity change, negative = inhibition",[1],inactive: 0.168%
O=P1(Nc2ccc(Br)cn2)COc2ccccc2OC1,"activity change, negative = inhibition",[1],inactive: 2.63%
O=P1(Nc2ccccn2)COc2ccccc2OC1,"activity change, negative = inhibition",[1],inactive: 0.389%
CN(CCCl)Cc1cc(Cl)c(NC2=NCCN2)c(Cl)c1,"activity change, negative = inhibition",[1],inactive: 0.705%
Clc1n[nH]nc1-c1nn[nH][15n]1,"activity change, negative = inhibition",[1],inactive: -0.33%
CN(C(=O)Cc1ccc(Cl)c(Cl)c1)[C@@H]1CCCC[C@H]1N1CCCC1,"activity change, negative = inhibition",[1],inactive: 0.733% [middle of 4 runs]
NS(=O)(=O)Cc1ccc([As](=O)(O)O)cc1,"activity change, negative = inhibition",[1],inactive: -2.06% [at 11.5 µM]
O=C(CC(=O)c1ccccc1)O[C@H]1CN2CCC1CC2,"activity change, negative = inhibition",[1],inactive: -0.0021% [at 11.5 µM]
CN(C(=O)Cc1ccc(Cl)c(Cl)c1)[C@@H]1CC[C@@]2(CCCO2)C[C@H]1N1CCCC1,"activity change, negative = inhibition",[1],inactive: 1.85%
O=P(Nc1nccs1)(c1ccccc1)c1nc2ccccc2s1 (configuration not stated),"activity change, negative = inhibition",[1],inactive: 1.24%
CCOP1(=S)c2c(C)nn(CCC#N)c2N=C(c2ccccc2F)N1C (configuration not stated),"activity change, negative = inhibition",[1],inactive: -7.05%
O=[As](O)(O)c1ccc([As](=O)(O)O)cc1,"activity change, negative = inhibition",[1],inactive: 1.06% [at 11.5 µM]
NC(=O)Nc1ccc([As](=O)(O)O)cc1,"activity change, negative = inhibition",at 25.7 µM (top of the series),inactive: 3.63%
same,"activity change, negative = inhibition",at 57.5 µM (top of the series),inactive: -1.07%
CCOP1(=S)c2c(C)nn(CCC#N)c2N=C(c2ccc(F)cc2)N1C (configuration not stated),"activity change, negative = inhibition",[1],inactive: 7.5%
O=[As]c1ccc(S(=O)(=O)NCCO)cc1 (configuration not stated),"activity change, negative = inhibition",[1],inactive: -0.148% [at 11.5 µM]
[N-]=[N+]=NCC(N)=O,"activity change, negative = inhibition",[1],inactive: 1.81% [at 11.5 µM]
O=C(OC1CN2CCC1CC2)C12CC3CC(CC(C3)C1)C2 (configuration not stated),"activity change, negative = inhibition",[1],inactive: -0.0365%
NC(=O)Nc1cc([As](=O)(O)O)cc(I)c1O,"activity change, negative = inhibition",[1],inactive: -3.77% [at 11.5 µM]
COP1(=S)c2c(C)nn(CCC#N)c2N=C(c2ccc(F)cc2)N1C (configuration not stated),"activity change, negative = inhibition",[1],inactive: 6.42%
O=C(COc1ccccc1)OC1CN2CCC1CC2 (configuration not stated),"activity change, negative = inhibition",[1],inactive: -1.01%
O=C(O)[C@@H](O)c1ccc([As](=O)(O)O)cc1,"activity change, negative = inhibition",[1],inactive: -0.943% [at 11.5 µM]
CN(N=O)C(=N)N[N+](=O)[O-],"activity change, negative = inhibition",[1],inactive: 0.271%
